Assay results from patent publication US20230390406A1, “Star Polymer Drug Conjugates” (Vaccitech North America, Inc., priority 2020, published 2023).

Test: Turbidity (OD 490 nm) / solubility in PBS buffer at different pH
Assay type: physicochemical
Source text: FIGS. 7 and 8 show turbidity for different polymer arms in PBS buffer over a pH range of 5.5 to 7.5.
Compounds 105-109 were designed to be negatively charged and soluble in aqueous buffer at physiologic pH, pH 7.4; however, at reduced pH, e.g., within an acidic tumor environment, the conjugate base of the carboxylic acid becomes protonated leading to reduced charge as well as reduced solubility of the polymer arms, which can be observed by measuring turbidity (OD at 490 nm). The turbidity of Compounds 100 and 105-109 in PBS buffer at pH ranging from 5.0 to 8.0 was conducted by first dissolving compounds in DMSO as a 40 mg/mL stock solution, then diluted to 0.5 mg/mL in 1×PBS titrated that was titrated with either HCl or NaOH to adjust the pH.
Compounds 110-131 were first characterized by UV-Vis (OD 490 nm) and DLS (dynamic light scattering) to assess their solubility and surface charge (zeta potential) in PBS buffer at physiologic pH. The sample preparation and characterization process were the same as described for Compound 109. […] Upon introduction of D2 comprising amphiphilic or hydrophobic drug molecules, i.e., Naph, 2BXy and diABZI, the polymer arm remained anionic across the DMBA mol % range. […]

N3-poly[(HPMA-co-Ma-b-Ala-2BXy)-b-(HPMA-co-Ma-propyl-NH2)]-Pg [Compound 68]
Turbidity at pH 6.5: 0.039
Turbidity at pH 7.4: 0.039
